Only some compounds are listed: those with a hit (about 0.73% of all), similar ones and a draw of the others.
RAD52 inh = RAD52 (human) annealing inhibition; P43351; inhibition, % at 18.7 µM; 0.46% of 360,000 active; recombinant RAD52 DNA annealing, FRET fluorescence; AID 651710;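 active = every replicate showing at least 50% inhibition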
Yeast UUG start-1 = alters start codon recognition fidelity in yeast; AID 602363; activity score, % at 18.7 µM; 350,000 tested, 0.13% active; S. cerevisiae UUG-firefly luciferase reporter, luminescence/redox ratio;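 active means replicate mean at a twofold rise or more, about +100% in these data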;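 further: firefly luciferase made from a UUG start codon reports start codon fidelity; reporter light over untreated wells divided by growth signal over untreated wells; some hits fall short of that in this replicate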
E-sel inducer = E-selectin induction on HUVECs. P16581. HUVEC E-selectin immunofluorescence imaging; normalized: neutral wells 0, TNF-alpha wells 100. activation, % at 7.58 µM. 0.37% of 260,000 active. AID 686992;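 active = mean E-selectin-positive cell signal at least 10% of the positive control, reached in at least 60% of replicates, without over 20% cell loss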
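Test system: HUVEC | Signal: Immunofluorescence imaging | Read-out: Percent E-selectin-positive cells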
RAD54 branch = RAD54 (human) branch migration inhibition. AID 602329. inhibition, % at 10.4 µM. 0.14% of 360,000 active. RAD54 Holliday junction branch migration, FAM/BHQ fluorescence;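 active = mean normalized replicate activity at least 40 and at least half of replicates scoring 40 or more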;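 also: 0% = median of neutral control wells and 100% = median of positive control wells; inhibitors cause a drop in the FAM fluorescence signal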
Xi reactivation = X-chromosome reactivation activator; XiGFP mouse fibroblasts, % GFP-positive cells imaging, 3 d; cells co-treated with 5-aza-dC sensitizer; scaled so ellipticine positive control = 100%; activation, % at 7.58 µM; 0.055% of 360,000 active; AID 743238;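 active = mean normalized replicate activation at least 10% and every replicate at or above 10%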;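 also: 0% = median of on-plate neutral control wells and 100% = ellipticine 6 µM median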
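Assay system – SV40-immortalized XiGFP fibroblast cells, line 68-5-11 · Buffer or medium – DMEM supplemented with 5-aza-dC as sensitizing agent · Dosing – one concentration, pinned · Benchmarks – positive control ellipticine, 6 µM final · Times – 3 days compound exposure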
Yeast UUG start-2 = yeast start codon fidelity modulation. shares compounds with Yeast UUG start-1. S. cerevisiae UUG-start firefly luciferase, luminescence, 4 h; 100% means double the DMSO signal. activation, % at 38 µM. 540 tested, under 10 active. AID 652061;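 active = signal increase whose fitted curve reaches an absolute level of 40 at a concentration under 10 µM; inactive = activity opposite to the expected increase, or the rest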
DNA binder FP = binds DNA, flagging false RAD52 inhibitor hits; shares compounds with RAD52 inh; Salmon sperm DNA/acridine orange FP displacement, DNA binding; AC50, µM; 8% of 1,000 active; AID 652128;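 active = fitted half-maximal concentration for signal loss at or below twice the highest dose tested, in every separate run, actives reach about 64 µM in these data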
* marks the source's active call; other numbers are inactive results; i = inactive; . = no result.

Short keys: A = RAD52 inh; B = Yeast UUG start-1; C = E-sel inducer; D = RAD54 branch; E = Xi reactivation; F = Yeast UUG start-2; G = DNA binder FP
(1) C[C@H](CO)N1C[C@H](C)[C@H](CN(C)C(=O)c2cccnc2)Oc2ncc(-c3ccc(C#N)cc3)cc2C1=O
  A: 5.4; B: 154.4*; C: -0.2; D: -7.2; E: -1.1; F: i; G: .
(2) COc1cc(OC)cc(C(=O)Nc2cccc(NC(=O)c3cccs3)c2)c1
  A: -14.5; B: 123.8*; C: -0.8; D: -6.7; E: 0.1; F: 18.3; G: .
(3) COC(=O)Nc1ccc(S(=O)(=O)N2CCC(C)CC2)cc1
  A: .; B: 3.7; C: .; D: 2.5; E: .; F: .; G: .
(4) COc1ccccc1CC(=O)OC(C)C(=O)Nc1ccc(S(=O)(=O)N2CCCCC2)cc1 (stereo unspecified)
  A: -16.0; B: -1.7; C: .; D: 4.8; E: 0.2; F: -3.2; G: .
(5) COC(=O)Nc1ccc(S(=O)(=O)N2CCC(Cc3ccccc3)CC2)cc1
  A: .; B: 461.7*; C: .; D: 4.5; E: .; F: -1.8; G: .
(6) CCOc1ccccc1Nc1nc2ccccc2[nH]1
  A: .; B: 580.8*; C: .; D: 4.1; E: .; F: -2.1; G: .
(7) CCC(=O)N1C[C@H](C)[C@@H](OC)CN(C)C(=O)c2ccc(NC(=O)c3ccc(F)cc3)cc2OC[C@@H]1C
  A: -13.5; B: .; C: 0.1; D: .; E: 0.2; F: .; G: .
(8) COc1cc(C(C)=O)ccc1OCc1cn(CC(=O)c2ccc(O)cc2)nn1
  A: -12.6; B: 156.8*; C: -0.1; D: 1.5; E: -0.1; F: -1.4; G: .
(9) O=C(Cn1cc(COc2ccccc2C(F)(F)F)nn1)c1ccc(O)cc1
  A: -7.9; B: 140.7*; C: 0.0; D: 2.1; E: 0.1; F: 4.4; G: .
(10) CC(=O)Nc1ccc(OCc2cn(CC(=O)c3ccc(O)cc3)nn2)cc1
  A: -6.1; B: 96.5*; C: 1.4; D: 2.5; E: 0.3; F: -6.7; G: .
(11) CCCN1C[C@@H](C)[C@H](OC)CN(C)C(=O)c2cc(NC(=O)c3cccc(OC)c3)ccc2OC[C@@H]1C
  A: .; B: .; C: -0.4; D: .; E: 0.3; F: .; G: .
(12) Cc1noc(C)c1NC(=O)N(C)C[C@@H]1Oc2ncc(C#CC(C)C)cc2C(=O)N([C@H](C)CO)C[C@@H]1C
  A: 5.8; B: 12.3; C: 0.0; D: 4.0; E: -0.7; F: .; G: .
(13) CC(C)CC#Cc1ccc([C@H]2[C@@H](CO)N3CCCCN(S(=O)(=O)c4ccc(F)cc4)C[C@H]23)cc1
  A: 16.0; B: 81.4*; C: -0.8; D: -1.9; E: 0.1; F: i; G: .
(14) C/C(=N\NC(=O)CC1N=C(Cc2ccccc2)NNC1=O)c1ccc(C)cc1 (stereo unspecified)
  A: .; B: 372.5*; C: .; D: 0.6; E: .; F: 2.5; G: .
(15) CO[C@H]1CN(C)C(=O)c2ccc(NC(=O)Nc3ccc(Cl)cc3)cc2OC[C@H](C)N(C)C[C@@H]1C
  A: 24.5; B: .; C: 0.2; D: .; E: 0.2; F: .; G: .
(16) COc1ccc(C(C#N)N2CCC(c3ccccc3)=N2)cc1 (stereo unspecified)
  A: -45.9; B: 182.7*; C: 1.3; D: -7.8; E: 0.3; F: -4.2; G: .
(17) COc1cc(C(C#N)N2N=C(c3ccccc3)CC2c2ccccc2)ccc1O (stereo unspecified)
  A: .; B: -10.8; C: .; D: 2.6; E: .; F: .; G: .
(18) O=C(O)CSc1nnc(-c2ccc(Cl)cc2)n1-c1ccccc1
  A: -15.5; B: 123.6*; C: .; D: -3.3; E: -0.1; F: 0.3; G: .
(19) Cn1cnc(S(=O)(=O)N2C[C@H](O)COC[C@H]3O[C@@H](CC(=O)NC4CCC4)CC[C@@H]32)c1
  A: -1.2; B: .; C: -0.1; D: 8.9; E: 0.4; F: .; G: .
(20) CCOCCCn1c(C)nc2c[n+](CC(=O)c3ccc4ccccc4c3)cc(Br)c21
  A: 64.4*; B: 1.5; C: .; D: 36.7; E: 0.0; F: .; G: i
(21) COc1cccc2sc(N(CCCN(C)C)C(=O)c3ccc(S(=O)(=O)N4CCCc5ccccc54)cc3)nc12
  A: 45.1; B: -12.6; C: 13.9; D: 12.4; E: 0.1; F: .; G: .
(22) CCc1ccc2nc(N(CCCN(C)C)C(=O)c3ccc(S(=O)(=O)N4CCCc5ccccc54)cc3)sc2c1
  A: 71.1*; B: 7.1; C: 0.2; D: 10.1; E: 0.1; F: .; G: i
(23) CCc1ccc2nc(N(CCCN(C)C)C(=O)c3ccc(S(=O)(=O)N4CCCC4)cc3)sc2c1
  A: 21.3; B: 14.6; C: .; D: 1.2; E: 0.0; F: .; G: .
(24) Cc1ccc2nc(N(CCCN(C)C)C(=O)c3ccc(S(=O)(=O)N4CCCCCC4)cc3)sc2c1
  A: 61.4*; B: -4.9; C: 5.1; D: 2.8; E: -0.1; F: .; G: i
(25) CNC[C@@H]1OCCCC[C@H](C)Oc2ccc(NC(=O)c3ccncc3)cc2C(=O)N([C@H](C)CO)C[C@@H]1C
  A: -11.2; B: -8.8; C: 0.2; D: -2.0; E: 0.0; F: .; G: .
(26) Cc1ccc2nc(N(CCCN(C)C)C(=O)CN3C(=O)c4ccccc4C3=O)sc2c1
  A: 62.0*; B: .; C: 1.2; D: .; E: 0.4; F: .; G: i
(27) Cc1ccc2nc(N(CCCN(C)C)C(=O)CCc3ccccc3)sc2c1
  A: 40.1; B: .; C: -1.3; D: .; E: 0.0; F: .; G: .
(28) Cc1cc(C)c2sc(N(CCCN(C)C)C(=O)c3ccc(Br)s3)nc2c1
  A: 57.6*; B: 9.9; C: -0.1; D: 5.8; E: 0.7; F: .; G: i
(29) Cc1cc(C)c2sc(N(CCCN(C)C)C(=O)CN3C(=O)c4ccccc4C3=O)nc2c1
  A: 66.5*; B: 2.9; C: 0.6; D: 41.3; E: 0.0; F: .; G: i
(30) COc1ccc(NC(=O)CCN2CCN(c3ccc(F)cc3)CC2)cc1
  A: -8.2; B: -11.6; C: 0.3; D: -5.7; E: 0.3; F: .; G: i
(31) CCOc1ccc(NC(=O)CCN2CCN(c3ccccc3)CC2)cc1
  A: .; B: -12.3; C: .; D: 12.9; E: .; F: .; G: .
(32) CCCC(=O)N1CCC2(CC1)CN(C(=O)C1CCCC1)[C@@H](CO)c1[nH]c3cc(OC)ccc3c12
  A: 6.8; B: .; C: -0.4; D: .; E: 0.4; F: .; G: .
(33) O=C(Nc1cccc(C(=O)Nc2cccc(Br)c2)c1)c1ccccc1
  A: 94.3*; B: -10.3; C: 1.8; D: -3.0; E: 1.2; F: .; G: i
(34) O=C(O)c1cccc(NC(=O)c2ccccc2)c1
  A: 5.4; B: -15.1; C: .; D: -12.9; E: -0.2; F: .; G: .
(35) c1cc(OCCCN2CCCCC2)ccc1CN1CCCCC1
  A: 21.0; B: 18.4; C: -1.7; D: 0.3; E: 0.0; F: .; G: i
(36) O=C(N[C@H]1CC[C@@H](CC(=O)N2CCc3ccccc3C2)O[C@@H]1CO)C1CCC1
  A: 3.8; B: -4.6; C: 2.6; D: 4.0; E: -0.3; F: .; G: .
(37) CCc1c(C)nc(Nc2nc(C)c3cc(OC)ccc3n2)[nH]c1=O
  A: .; B: -22.5; C: .; D: 8.5; E: .; F: .; G: .
(38) COc1ccc2nc(NC3=NC(c4ccccc4)CC(=O)N3)nc(C)c2c1 (stereo unspecified)
  A: 71.9*; B: .; C: -0.1; D: .; E: 0.1; F: .; G: i
(39) C[C@@H]1CN([C@H](C)CO)C(=O)c2cc(NS(C)(=O)=O)ccc2O[C@@H](C)CCCCO[C@@H]1CN(C)S(=O)(=O)c1cccs1
  A: 6.7; B: -1.8; C: -0.2; D: 0.1; E: 0.0; F: .; G: .
(40) CN(C)CCCn1c(=S)[nH]c2sc3c(c2c1=O)CCCC3
  A: 97.2*; B: -15.9; C: 0.0; D: 10.5; E: 0.2; F: .; G: i
(41) CO[C@H]1CN(C)C(=O)c2cc(NC(=O)c3cnccn3)ccc2OC[C@H](C)N(CCc2ccccc2)C[C@@H]1C
  A: -12.8; B: -5.3; C: -0.3; D: -0.4; E: 0.1; F: .; G: .
(42) CC1CCCCN1CC(=O)Nc1ccc(N2CCCCCC2)cc1 (stereo unspecified)
  A: 92.5*; B: .; C: .; D: .; E: -0.1; F: .; G: i
(43) CN1[C@@H]2Cn3c(ccc(-c4ccccc4F)c3=O)[C@H]1[C@@H](C(=O)NCc1ccccn1)[C@@H]2CO
  A: -7.3; B: .; C: -0.2; D: 1.9; E: 0.3; F: .; G: .
(44) CN1CCN(c2ccc(CNC[C@H]3O[C@@H](n4cnc5c(=O)[nH]c(N)nc54)[C@H](O)[C@@H]3O)c(F)c2)CC1
  A: 81.6*; B: -10.5; C: 0.0; D: -5.1; E: 0.8; F: .; G: i

In the list so far, 2 have a Cl atom:
Short keys: A = RAD52 inh; B = Yeast UUG start-1; C = E-sel inducer; D = RAD54 branch; E = Xi reactivation; F = Yeast UUG start-2; G = DNA binder FP
(15) CO[C@H]1CN(C)C(=O)c2ccc(NC(=O)Nc3ccc(Cl)cc3)cc2OC[C@H](C)N(C)C[C@@H]1C
  A: 24.5; B: .; C: 0.2; D: .; E: 0.2; F: .; G: .
(18) O=C(O)CSc1nnc(-c2ccc(Cl)cc2)n1-c1ccccc1
  A: -15.5; B: 123.6*; C: .; D: -3.3; E: -0.1; F: 0.3; G: .
